Values quoted from earlier work in patent US6426317B1, “Stable, high available halogen 1,3,5-triazine-2,4,6-trione compositions having rapid dissolution rates” (Great Lakes Chemical Corporation, priority 1999, dated 2002).

Tests used:
[1] = in water at 20° C.; cited from earlier work
[2] = NFPA scale from 1 to 4, NFPA 430, 1995 edition; cited from earlier work

In the case of sodium dichloroisocyanurate, the Solubility [1] is given as 12.5^4 g/100g (%) and the “Oxidizer Rating” value [2] is given as 1.
